One molecule from patent US8066985B2, “Reovirus for the treatment of cellular proliferative disorders” (Oncolytics Biotech Inc., priority 1999, dated 2011) can be followed below.

In this assay the test system is Ras-transformed cells. The assay can be described thus: Interferon β effect on reovirus replication. The format is cell-based.

B1: Interferon β: known to induce PKR expression (protein, UniProt P01574 22-187, looked up)
Interferon beta: MSYNLLGFLQRSSNFQCQKLLWQLNGRLEYCLKDRMNFDIPEEIKQLQQFQKEDAALTIYEMLQNIFAIFRQDSSSTGWNETIVENLLANVYHQINHLKTVLEEKLEKEDFTRGKLMSSLHLKRYYGRILHYLKAKEYSHCAWTIVRVEILRNFYFINRLTGYLRN
For the molecule B1, the reovirus replication entry is given as “significantly reduce reovirus replication”.
